Assay results: US12441704B2, “Compounds active towards nuclear receptors” (NUEVOLUTION A/S, priority 2019, dated 2025)
Like-named read-outs stand apart in the source and are kept apart here.

Protein sequences, listed by entry. Tags and fused reporters are not part of them. Residues count along the entry.
UniProt P51449, 269-508 limits assumed: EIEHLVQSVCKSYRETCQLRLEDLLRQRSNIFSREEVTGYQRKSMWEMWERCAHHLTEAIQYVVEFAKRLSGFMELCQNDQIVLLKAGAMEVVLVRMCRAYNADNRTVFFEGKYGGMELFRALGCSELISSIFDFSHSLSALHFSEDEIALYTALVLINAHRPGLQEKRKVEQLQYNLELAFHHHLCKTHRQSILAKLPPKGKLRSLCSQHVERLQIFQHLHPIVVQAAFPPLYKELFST

Biological target: T1, RORγ ligand-binding domain fused to Gal4 (Homo sapiens, UniProt P51449)
T1 construct: Gal4 (galactose-responsive transcription factor); expressed in transfected cells; host or cells: HEK293
Test: RORγ Reporter Assay (Gal4)
Assay type: cell-based
Procedure: The HEK293 cell line is co-transfected transiently with two plasmids, one with the RORγ ligand-binding domain fused to galactose-responsive transcription factor (Gal4), and the other with the luciferase reporter gene and Gal binding sites (UAS). This construction allows to determine the RORγ activity in a cellular system through the measurement of luminescence.
A suspension of RORγ reporter cells was dispensed into plates and cultured 2 h at 37° C. and 5% CO2. Media formulation consisted in DMEM/F-12 medium (Gibco) supplemented with 10% heat inactivated FBS (Sigma-Aldrich), non-essential aminoacids (Sigma-Aldrich), 2 mM Glutamax (Gibco) and 100 U/mL penicillin (Sigma-Aldrich). Dose-response curves with compounds were prepared in 100% DMSO and further diluted 100-fold in culture medium. Compound solutions were added to the plate containing cells (final DMSO concentration of 0.1%) and incubated for 24 h at 37° C. and 5% CO2. Luciferase detection reagent was added to each well, and relative light units (RLUs) were quantified from each assay well using a plate reading luminometer.
Values of average RLU±S.D. were computed for all treatment sets, followed by the calculations of percent-reduction of RORγ activity in response to respective test compound. The following formula was used: activity=100*[1−[x test compound/average vehicle] where the theoretical minimum reduction (0% reduction).

[1] = HEK293 cells co-transfected with RORγ LBD-Gal4 and luciferase reporter, 24 h incubation, absolute EC50, read-out: EC50

Row | SMILES | EC50 [1] [nM] | EC50 (compounds of the present disclosure, source: Table 2 herein, read-out: Gal4 assay EC50) [nM]
1 | CC1(N(Cc2ccc(C(F)(F)F)cc2)c2ncnc(NC[C@@H]3CCN(CC(N)=O)C[C@H]3O)c2F)CC1 (racemic) [Example A7-41, rac-2-((3R,4R)-4-(((5-fluoro-6-((1-methylcyclopropyl)(4-(trifluoromethyl)benzyl)amino)pyrimidin-4-yl)amino)methyl)-3-hydroxypiperidin-1-yl)acetamide] | 27 | 
2 | NC(=O)CN1CCC(CNc2ncnc(N(Cc3ccc(C(F)(F)F)cc3)C3CC3)c2F)C(F)(F)C1 (single isomer, unassigned) [Example A7-06-2] |  | < 100
3 | NC(=O)CN1CCC(CNc2ncnc(N(Cc3ccc(C(F)(F)F)cc3)C3CC3)c2F)C(C(F)(F)F)C1 (single isomer, unassigned) [Example A7-07-3, 2-(4-(((6-(cyclopropyl(4-(trifluoromethyl)benzyl)amino)-5-fluoropyrimidin-4-yl)amino)methyl)-3-(trifluoromethyl)piperidin-1-yl)acetamide] | 21 | 
4 | CCN(Cc1ccc(C(F)(F)F)cc1F)c1ncnc(NC[C@@H]2CCN(CC(N)=O)C[C@H]2O)c1F (single isomer, unassigned) [Example A7-26-1] | 27 | 
